The values below come from ChEMBL document CHEMBL2057129, “Evaluation of synthetic FK506 analogues as ligands for the FK506-binding proteins 51 and 52” (J Med Chem, 2012).

The experiment concerns the target T1, Peptidyl-prolyl cis-trans isomerase FKBP5 (Homo sapiens, UniProt Q13451).
T1 sequence (Q13451 whole entry): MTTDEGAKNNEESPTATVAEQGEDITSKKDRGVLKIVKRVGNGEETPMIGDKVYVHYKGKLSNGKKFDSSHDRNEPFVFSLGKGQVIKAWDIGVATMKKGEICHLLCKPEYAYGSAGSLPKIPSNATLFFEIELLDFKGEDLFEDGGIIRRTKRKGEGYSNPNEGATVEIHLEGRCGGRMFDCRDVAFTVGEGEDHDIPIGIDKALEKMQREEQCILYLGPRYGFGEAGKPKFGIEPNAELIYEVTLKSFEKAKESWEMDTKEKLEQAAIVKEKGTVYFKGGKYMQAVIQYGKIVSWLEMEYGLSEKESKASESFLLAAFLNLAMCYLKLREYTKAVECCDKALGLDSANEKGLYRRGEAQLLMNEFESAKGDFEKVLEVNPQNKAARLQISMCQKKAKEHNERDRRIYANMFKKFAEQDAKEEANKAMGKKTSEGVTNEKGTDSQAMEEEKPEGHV
The experiment in a line: Binding affinity to FKBP51 FK1 domain by fluorescence polarization assay.

Molecule `CCC(C)(C)C(=O)C(=O)N1CCCC[C@H]1C(=O)O[C@H](CCc1ccc(OC)c(OC)c1)c1cccc(OCC(=O)O)c1` yielded an IC50 of 8.36 µM.
